Measured values from patent publication US6624187B1, “Long wave length absorbing bacteriochlorin alkyl ether analogs” (Health Research, Inc., priority 2000, dated 2003).

Experiment: Stability in vivo (and in vitro) of bacteriopurpurin ring systems
Text: For the preparation of bacteriopurpurin 1 (FIG. 2), the n-propyl alcohol extract of Rb Sphaeroides, which contains bacteriochlorophyll-a (λmax 774 nm), was directly reacted with KOH/n-propanol in presence of air. It was immediately treated with HCl or H2SO4 (pH 2 to 3) to produce bacteriopurpurin-18 propyl ester and the related carboxylic acid 2 which in reacting with H2SO4/n-propanol can be converted into the related propyl ester analog 1.
Compared to the anhydride ring system, compounds with fused imide ring system in other compounds have shown stability in vivo. For example, among non-porphyrin systems, amonafide, an imide derivative and its structural analogs are reported as anti-neoplastic agents in vitro as well as in vivo with good stability. While we could not know how this might apply to non-porphyrin systems, we investigated the effect of such cyclic structures in the bacteriochlorin system. Initially we followed our own methodology developed for the preparation of purpurin-18-N-alkylimides (U.S. Pat. No. 5,952,366 incorporated herein by reference). Unfortunately, that approach produced a complex reaction mixture. Thus, in a modified approach, bacteriopurpurin-a 2 was first reacted with an alkyl amine (e.g. n-hexyl amine). The formation of the intermediate amide was monitored by spectrophotometry and analytical thin layer chromatography. […]

3-Acetyl-bacteriopurpurin-18-N-hexylimide [Compound 4]
stability in vitro and in vivo: stable in vitro and in vivo
